# Experimental data taken from patent US9597369B2, “Inhibitors of atypical protein kinase C and their use in treating hedgehog pathway-dependent cancers” (The Board of Trustees of the Leland Stanford Junior …, priority 2011, dated 2017).
# Assays:
# [1] = test system: Smo resistant cell lines; test: Cell proliferation of Smo-resistant BCC cell lines; assay type: cell-based, mouse; conditions: lines resistant to high levels of Sant-1, FIG. 4e
# Experimental: Primary mouse dermal cells were isolated as previously described (Bershteyn, M., Atwood, S. X., Woo, W.-M., Li, M. & Oro, A. E. MIM and cortactin antagonism regulates ciliogenesis and hedgehog signaling. Dev. Cell 19, 270-283 (2010)). Dermal cells were grown in Amniomax media containing supplement and antibiotics (Invitrogen). ASZ001 cells were grown in 154CF media containing 2% chelated FBS, HKGS supplement, and antibiotics (Invitrogen). Keratinocytes (HPA Culture Collections) were grown in CnT-07 media containing supplement and 0.07 mM CaCl2 (CelINTec). Cells were sterum-starved between 24-48 hrs to induce ciliogenesis. MTT cell proliferation assay was performed using manufacturer's protocol from Invitrogen.
# Smo resistant cell lines were generated by treating BCC cells with increasingly higher concentrations of Sant-1 every passage for three weeks. Final resistant cell lines were grown in 60 uM Sant-1. Cyclopamine was used to inhibit Hh signaling to verify Smo resistance.
# [2] = test system: Hh signaling; test: Hh signaling (gli1 mRNA, Gli target gene induction) in BCC cells; assay type: cell-based, mouse; conditions: BCC cells with SAG, FIG. 3d
# Experimental: Drug treatments for cells were performed with myristoylated PSI (myr-SIYRRGARRWRKLY (SEQ ID NO:4)), Sant-1 (Tocris Bioscience), cyclopamine (Tocris Bioscience), SAG (EMD), and cyclohexamide (Sigma). Subconfluent ASZ001 cells were serum-starved and inhibitors added for 48 hrs prior to MTT assay and 24 hrs prior to visualize cilia and assay Gli target gene induction. Stability assays performed with ASZ001 preincubated with PSI for one hour before 20 ug/ml cyclohexamide addition at various time points.
# Aligned 36 bp raw reads with Bowtie using the NCBI37/mm9 reference genome. Differential expression analysis was performed on the 3′ exon with the Cufflinks suite using mouse RefSeq gene predictions as a reference transcriptome. Annotated coding transcripts were filtered for significant expression by a RPKM of 25 in at least one sample set. Transcripts that were two-fold or greater changed in drug-treated samples were hierarchically clustered using the Cluster program and visualized in Java Treeview. Transcripts were validated using Brilliant II SYBR Green qRT-PCR Master Mix Kit (Agilent Technologies) with primers listed in the following table. Two-tail p-value between our gene sets and other gene sets calculated using Fisher's Exact Test.
smiles,measurement,setting,value
CC1=C2C[C@H]3[C@@H](CC=C4C[C@@H](O)CC[C@@]43C)[C@@H]2CC[C@]12O[C@@H]1C[C@H](C)CN[C@H]1[C@H]2C [cyclopamine],cell proliferation of Smo-resistant BCC cell lines,[1],little effect on cell proliferation
same,SAG-induced activation of gli1 transcription,[2],can be outcompeted by SAG-mediated activation
